# Measured values: patent EP0552386A1, “2-Amino-3 or 6-methoxycyclohexyl amide derivatives” (dated 1993)
# Chains of the proteins cited; added tags and fusions are not shown. Lines headed by an entry give the natural chain unless they say otherwise; changes in a name come on top.
# UniProt P41144: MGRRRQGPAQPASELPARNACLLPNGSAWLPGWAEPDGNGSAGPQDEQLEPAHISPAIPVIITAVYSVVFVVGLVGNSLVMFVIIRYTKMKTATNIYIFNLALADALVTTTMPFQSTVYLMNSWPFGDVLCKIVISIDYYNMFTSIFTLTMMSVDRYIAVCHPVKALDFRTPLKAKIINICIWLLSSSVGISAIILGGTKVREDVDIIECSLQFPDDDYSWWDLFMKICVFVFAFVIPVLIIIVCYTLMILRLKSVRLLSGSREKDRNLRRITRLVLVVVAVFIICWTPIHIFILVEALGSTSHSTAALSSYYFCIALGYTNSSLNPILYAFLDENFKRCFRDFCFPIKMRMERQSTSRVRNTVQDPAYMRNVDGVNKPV
# Molecular target: kappa opioid receptor (Cavia porcellus, UniProt P41144)
# Assay: kappa opioid receptor binding, tritiated etorphine, brain homogenates
# Settings: in vitro receptor binding assay; result in words
compound,measurement,value
CO[C@@H]1CCC[C@@H](N2CCCC2)[C@@H]1N(C)C(=O)Cc1cccc2occc12 (racemic),selectivity for the kappa versus mu opioid receptor,particularly high selectivity
